Test results published in patent publication US7183068B2, “Methods of manufacturing glucose measuring assemblies with hydrogels” (Animas Technologies, LLC, priority 1999, dated 2007).

Assays:
[1] = Adsorption of Nipastat paraben components from hydrogel by gel retaining layer, HPLC of gel extract; type: physicochemical; conditions: 9 Days at 4° C.; for HPLC peak intensity of paraben extracted from hydrogel, Average: average of 5; for HPLC peak intensity of paraben extracted from hydrogel: individual samples 1-5
Method: (§1) Nipastat®-containing hydrogels were formulated with the appropriate buffer salts under standard conditions, from which samples were taken for analysis. […] The hydrogels were cut using a ¾ inch punch to generate the sample disks to assay. Each disk was added to 5 mL of acetonitrile/water (30% ACN, v/v) and the Nipastat® biocide was extracted for 1 hour while shaking on an orbital shaker at 100 rpm. The extract was then filtered through a 0.2 μm membrane prior to HPLC separation and UV detection at 254 nm.
Reverse phase HPLC chromatography was performed using a Waters 3.9 mm×15 cm Nova-Pak C-18 column (Milford, Mass.) operating at a flow rate of between about 1.0 to 2.0 mL/min. at 35° C. The eluent was monitored by UV at 254 nm using a Shimadzu SPD-10AU UV-Visible spectrometer (Kyoto, Japan). Samples 10 μL in volume were injected into the column equilibrated in 30% ACN in water, and the following 20-minute gradient program was performed: • 1. Initial time of injection: 30% ACN/70% water at a flow rate of 1 mL/min • 2. Linear Gradient from 30% ACN to 80% ACN for 9.0 minutes (1 mL/min) • 3. Linear Gradient from 80% ACN to 100% ACN for 0.5 minutes (1 mL/min) • 4. 100% ACN for 4.5 minutes (1 mL/min) • 5. Linear Gradient from 100% ACN to 30% ACN for 0.5 minutes at a flow rate of 2 mL/min • 6.30% ACN for 5.5 minutes at a flow rate of 1 mL/min
The HPLC profiles of the extracts were compared with that of a standard solution of known concentration comprising the p-hydroxybenzoate derivatives. The peak intensities of the experimental samples are compared to those of the standards to determine relative amounts of each extracted paraben.
Collection assemblies incorporating Nipastat® biocide-comprising hydrogels were assayed for retention of the biocide within the hydrogel. Samples of the hydrogel prior to and after incorporation into the collection assembly, as well as the components of the collection assembly in contact with the hydrogel, were prepared as described in Example 1.

[2] = Adsorption of Nipastat paraben components from hydrogel by mask layer, HPLC of gel extract; type: physicochemical; conditions: Gel Control, 48 Hours at 4° C.
Method: as §1
Reverse phase HPLC chromatography was performed using a Waters 3.9 mm×15 cm Nova-Pak C-18 column (Milford, Mass.) operating at a flow rate of between about 1.0 to 2.0 mL/min. at 35° C. The eluent was monitored by UV at 254 nm using a Shimadzu SPD-10AU UV-Visible spectrometer (Kyoto, Japan). Samples 10 μL in volume were injected into the column equilibrated in 30% ACN in water, and the following 20-minute gradient program was performed: • 1. Initial time of injection: 30% ACN/70% water at a flow rate of 1 mL/min • 2. Linear Gradient from 30% ACN to 80% ACN for 9.0 minutes (1 mL/min) • 3. Linear Gradient from 80% ACN to 100% ACN for 0.5 minutes (1 mL/min) • 4. 100% ACN for 4.5 minutes (1 mL/min) • 5. Linear Gradient from 100% ACN to 30% ACN for 0.5 minutes at a flow rate of 2 mL/min • 6.30% ACN for 5.5 minutes at a flow rate of 1 mL/min […]

Substance: p-hydroxybenzoic acid butyl esters
- % Loss of Nipastat ® biocide from Gel ([1]; Gel + GRL versus Gel Control): 82.4%
- HPLC peak intensity of paraben extracted from hydrogel, Average ([1]; Gel + GRL): 12718
- HPLC peak intensity of paraben extracted from hydrogel ([1]; Gel + GRL): 1377 and 15432 and 8640 and 17787 and 20353
- HPLC peak intensity of paraben extracted from hydrogel, Average ([1]; Gel Control): 72171
- HPLC peak intensity of paraben extracted from hydrogel ([1]; Gel Control): 66552 and 82337 and 82288 and 67760 and 61920
- HPLC peak intensity of paraben extracted from hydrogel, Average ([2]; average of 5): 66562
- HPLC peak intensity of paraben extracted from hydrogel ([2]; individual samples 1-5): 59177 and 75858 and 68194 and 79360

Where “and” joins values, the source holds several entries; their conditions need not be identical. Equal values may be shown once.
